These results are taken from ChEMBL document CHEMBL1147510, “Activity of alpha7-selective agonists at nicotinic and serotonin 5HT3 receptors expressed in Xenopus oocytes” (Bioorg Med Chem Lett, 2004).

Protein sequences, listed by entry. Tags and fused reporters are not part of them.
UniProt P35563, whole entry: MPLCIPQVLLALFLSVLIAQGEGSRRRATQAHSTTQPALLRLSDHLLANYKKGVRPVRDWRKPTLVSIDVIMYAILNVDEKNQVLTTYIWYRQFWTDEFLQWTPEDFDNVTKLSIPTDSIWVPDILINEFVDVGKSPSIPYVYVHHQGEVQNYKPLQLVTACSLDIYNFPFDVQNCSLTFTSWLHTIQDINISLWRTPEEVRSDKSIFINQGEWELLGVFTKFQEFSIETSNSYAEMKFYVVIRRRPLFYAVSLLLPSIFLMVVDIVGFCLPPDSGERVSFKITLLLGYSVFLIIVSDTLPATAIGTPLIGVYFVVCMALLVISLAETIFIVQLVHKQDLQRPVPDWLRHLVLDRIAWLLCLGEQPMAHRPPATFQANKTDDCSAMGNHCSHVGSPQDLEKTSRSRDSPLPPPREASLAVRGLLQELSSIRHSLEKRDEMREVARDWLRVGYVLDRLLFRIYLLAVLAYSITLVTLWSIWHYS

This experiment has as its target 5-hydroxytryptamine receptor 3A (Rattus norvegicus, UniProt P35563). The experiment is described as follows: Response at rat 5-hydroxytryptamine 3a receptor expressed in xenopus oocytes. The format is functional, cell-based, Oocyte.

pEC50: −log10 of the molar value.

For `NCCc1c[nH]c2ccc(O)cc12` [SEROTONIN], the pEC50 (usually the negative decadic logarithm of the EC50, by convention in mol/L) is 4.92.
